Seven compounds from patent US10246453B2, “Benzenesulfonamide compounds and their use as therapeutic agents” (Xenon Pharmaceuticals Inc., priority 2016, dated 2019) can be followed below.

Protein sequences, listed by entry. Tags and fused reporters are not part of them. Chains listed by the source or under a name are the forms on record and can include a tag or linker.
UniProt Q14524, other isoform, or with tags, fused parts or gaps: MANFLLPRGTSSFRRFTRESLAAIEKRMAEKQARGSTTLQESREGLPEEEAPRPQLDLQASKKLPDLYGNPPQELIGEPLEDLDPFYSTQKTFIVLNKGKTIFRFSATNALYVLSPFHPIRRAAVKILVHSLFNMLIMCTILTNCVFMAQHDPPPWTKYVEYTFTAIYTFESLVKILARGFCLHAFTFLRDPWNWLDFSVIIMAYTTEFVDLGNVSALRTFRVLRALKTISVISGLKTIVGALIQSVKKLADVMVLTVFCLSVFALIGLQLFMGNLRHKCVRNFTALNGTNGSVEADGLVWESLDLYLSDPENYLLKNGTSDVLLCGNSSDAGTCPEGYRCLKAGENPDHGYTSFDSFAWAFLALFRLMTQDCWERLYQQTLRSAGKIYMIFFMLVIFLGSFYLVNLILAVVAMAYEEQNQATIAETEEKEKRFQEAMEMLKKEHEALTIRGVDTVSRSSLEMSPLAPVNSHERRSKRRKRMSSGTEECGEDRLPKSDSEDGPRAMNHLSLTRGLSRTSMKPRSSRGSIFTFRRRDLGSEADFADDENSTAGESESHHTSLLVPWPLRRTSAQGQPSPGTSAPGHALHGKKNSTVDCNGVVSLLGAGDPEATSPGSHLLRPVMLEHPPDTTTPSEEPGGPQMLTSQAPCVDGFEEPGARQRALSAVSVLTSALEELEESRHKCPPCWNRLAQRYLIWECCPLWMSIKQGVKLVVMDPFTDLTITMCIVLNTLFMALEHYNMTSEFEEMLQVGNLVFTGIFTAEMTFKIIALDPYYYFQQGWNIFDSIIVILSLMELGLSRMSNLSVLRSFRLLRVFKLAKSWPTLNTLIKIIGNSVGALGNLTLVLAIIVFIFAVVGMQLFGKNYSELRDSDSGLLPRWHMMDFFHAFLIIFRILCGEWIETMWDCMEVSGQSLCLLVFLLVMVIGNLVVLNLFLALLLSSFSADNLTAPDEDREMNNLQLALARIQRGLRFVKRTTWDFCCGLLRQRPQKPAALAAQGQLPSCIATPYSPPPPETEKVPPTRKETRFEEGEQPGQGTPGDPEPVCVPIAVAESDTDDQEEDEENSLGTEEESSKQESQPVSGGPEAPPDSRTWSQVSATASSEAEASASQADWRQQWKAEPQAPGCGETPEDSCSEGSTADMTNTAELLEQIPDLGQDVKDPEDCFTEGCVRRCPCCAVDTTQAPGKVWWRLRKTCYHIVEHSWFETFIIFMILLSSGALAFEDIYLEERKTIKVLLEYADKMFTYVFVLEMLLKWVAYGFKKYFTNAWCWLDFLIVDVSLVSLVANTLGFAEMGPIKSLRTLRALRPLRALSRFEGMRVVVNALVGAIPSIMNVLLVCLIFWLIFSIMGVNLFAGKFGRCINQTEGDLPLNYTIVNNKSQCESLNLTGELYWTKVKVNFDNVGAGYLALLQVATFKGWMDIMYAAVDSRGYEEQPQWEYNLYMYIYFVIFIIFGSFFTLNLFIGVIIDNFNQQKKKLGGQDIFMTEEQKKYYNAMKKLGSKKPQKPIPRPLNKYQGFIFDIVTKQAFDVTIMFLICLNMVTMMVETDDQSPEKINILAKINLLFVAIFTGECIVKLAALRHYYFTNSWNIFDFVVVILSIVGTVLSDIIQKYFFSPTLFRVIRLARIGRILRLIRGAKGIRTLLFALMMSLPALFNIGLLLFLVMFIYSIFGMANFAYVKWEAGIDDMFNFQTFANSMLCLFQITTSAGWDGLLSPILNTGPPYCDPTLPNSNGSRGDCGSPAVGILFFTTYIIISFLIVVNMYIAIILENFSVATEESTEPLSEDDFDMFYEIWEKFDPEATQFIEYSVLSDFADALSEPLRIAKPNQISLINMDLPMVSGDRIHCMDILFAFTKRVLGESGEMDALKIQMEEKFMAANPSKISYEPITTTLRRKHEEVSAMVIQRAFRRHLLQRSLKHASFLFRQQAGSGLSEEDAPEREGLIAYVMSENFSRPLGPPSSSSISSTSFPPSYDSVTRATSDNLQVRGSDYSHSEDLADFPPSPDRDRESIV
UniProt Q9UQD0, whole entry, looked up: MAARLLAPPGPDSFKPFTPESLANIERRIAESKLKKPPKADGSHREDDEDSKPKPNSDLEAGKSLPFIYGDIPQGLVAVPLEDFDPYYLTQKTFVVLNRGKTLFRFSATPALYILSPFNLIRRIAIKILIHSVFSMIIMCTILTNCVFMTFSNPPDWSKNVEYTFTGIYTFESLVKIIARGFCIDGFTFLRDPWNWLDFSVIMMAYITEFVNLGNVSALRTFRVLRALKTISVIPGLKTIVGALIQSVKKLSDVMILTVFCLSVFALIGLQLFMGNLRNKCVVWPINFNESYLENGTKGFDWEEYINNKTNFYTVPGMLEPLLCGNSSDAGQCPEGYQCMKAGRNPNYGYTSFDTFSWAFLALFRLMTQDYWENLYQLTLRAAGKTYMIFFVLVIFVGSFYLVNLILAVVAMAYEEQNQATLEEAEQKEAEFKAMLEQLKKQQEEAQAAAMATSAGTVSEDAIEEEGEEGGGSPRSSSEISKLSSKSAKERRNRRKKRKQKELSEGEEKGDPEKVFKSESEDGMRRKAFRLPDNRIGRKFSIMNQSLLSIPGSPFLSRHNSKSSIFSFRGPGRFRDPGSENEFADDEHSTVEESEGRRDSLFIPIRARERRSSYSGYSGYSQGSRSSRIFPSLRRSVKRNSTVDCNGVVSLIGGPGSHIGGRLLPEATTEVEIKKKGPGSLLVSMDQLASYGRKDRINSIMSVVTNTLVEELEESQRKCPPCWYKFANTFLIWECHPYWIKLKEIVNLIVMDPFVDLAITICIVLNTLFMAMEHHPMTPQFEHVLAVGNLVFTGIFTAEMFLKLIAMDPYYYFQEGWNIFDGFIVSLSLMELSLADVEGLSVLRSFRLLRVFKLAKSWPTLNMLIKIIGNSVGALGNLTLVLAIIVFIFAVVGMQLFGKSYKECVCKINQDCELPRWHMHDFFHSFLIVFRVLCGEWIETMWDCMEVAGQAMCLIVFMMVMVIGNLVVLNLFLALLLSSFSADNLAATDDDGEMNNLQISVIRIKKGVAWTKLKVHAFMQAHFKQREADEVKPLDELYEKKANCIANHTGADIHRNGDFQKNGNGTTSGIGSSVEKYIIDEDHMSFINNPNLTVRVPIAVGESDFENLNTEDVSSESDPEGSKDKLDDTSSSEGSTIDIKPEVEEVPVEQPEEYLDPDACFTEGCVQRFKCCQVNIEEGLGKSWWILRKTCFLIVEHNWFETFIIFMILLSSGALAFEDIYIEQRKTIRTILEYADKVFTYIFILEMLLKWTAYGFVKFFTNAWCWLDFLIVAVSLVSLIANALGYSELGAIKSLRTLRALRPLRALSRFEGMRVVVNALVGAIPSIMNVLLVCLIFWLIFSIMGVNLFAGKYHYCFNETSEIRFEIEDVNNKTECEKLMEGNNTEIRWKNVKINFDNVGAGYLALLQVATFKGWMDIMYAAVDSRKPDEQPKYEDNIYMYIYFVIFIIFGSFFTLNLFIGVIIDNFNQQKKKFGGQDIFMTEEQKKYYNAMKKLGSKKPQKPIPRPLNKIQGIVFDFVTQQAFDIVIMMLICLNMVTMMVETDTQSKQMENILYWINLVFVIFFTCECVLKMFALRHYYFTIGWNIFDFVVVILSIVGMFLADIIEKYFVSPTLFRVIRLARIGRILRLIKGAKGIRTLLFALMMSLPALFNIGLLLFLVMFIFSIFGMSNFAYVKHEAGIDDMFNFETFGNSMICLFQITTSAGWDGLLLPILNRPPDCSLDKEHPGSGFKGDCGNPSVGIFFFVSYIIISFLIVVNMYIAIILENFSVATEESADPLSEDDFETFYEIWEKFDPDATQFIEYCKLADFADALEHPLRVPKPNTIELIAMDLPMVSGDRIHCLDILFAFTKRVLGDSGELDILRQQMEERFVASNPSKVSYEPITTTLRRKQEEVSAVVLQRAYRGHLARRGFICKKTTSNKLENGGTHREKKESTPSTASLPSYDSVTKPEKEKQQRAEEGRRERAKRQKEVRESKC

Molecules are shown by their SMILES. Where a name gives a salt, the structure may show the parent alone.

Series [1] deals with T1, NaV1.5 (Homo sapiens (Human), UniProt Q14524). The series can be described thus: cell-based.
Another series concerns the target NaV1.6 (Homo sapiens (Human), UniProt Q9UQD0). The series can be described thus: Sodium Influx Assay (Flux), NaV1.6.
The target in series [2] is T2, NaV1.1 (Homo sapiens (Human), UniProt P35498). Briefly: Electrophysiological Assay (EP), patch voltage clamp, NaV1.1. The series is classed as cell-based. The conditions noted are these: HEK-293 cells, whole-cell patch clamp, inactivated state; arithmetic mean. A general note: In patch-clamp work, channel activity is measured electrically.
Series [3] deals with T2, NaV1.1. The series can be described thus: Sodium Influx Assay (Flux), NaV1.1. It is filed as cell-based. The conditions noted are these: Trex HEK293 cells, ANG2 dye; arithmetic mean.
Series [4] addresses T1, NaV1.5. Briefly: Sodium Influx Assay (Flux), NaV1.5. The note with it: read-out: Flux NaV1.5 IC50; Trex HEK293 cells, ANG2 dye; arithmetic mean.

A word on the IC50: it is the concentration needed to halve the response being measured. Regarding `C[C@]1(Oc2cc(F)c(S(=O)(=O)Nc3cscn3)cc2Cl)CCN(Cc2ccccc2)C1` (single isomer, unassigned) [Example 311A], the IC50 at NaV1.5 [1] turned out to be 10.5 µM; on NaV1.6, 18.3 µM. `Cc1cc(S(=O)(=O)Nc2cscn2)c(F)cc1N(C)[C@H]1CCN(Cc2ccccc2)C1` [Example 101, (S)-4-((1-benzylpyrrolidin-3-yl)(methyl)amino)-2-fluoro-5-methyl-N-(thiazol-4-yl)benzenesulfonamide formate] yielded an IC50 on NaV1.1 [2] of 31.7 µM.

The compound `C[C@@H]1CN(Cc2ccccc2F)CC[C@@H]1Oc1ccc(S(=O)(=O)Nc2nccs2)cc1Cl` (relative stereo) [Example 10A, 3-chloro-4-((cis-1-(2-fluorobenzyl)-3-methylpiperidin-4-yl)oxy)-N-(thiazol-2-yl)benzenesulfonamide] gave an IC50 on NaV1.5 [1] of 5.16 µM. On NaV1.1 [3], `O=S(=O)(Nc1nccs1)c1ccc(OC2CCN(Cc3ccccc3)CC2)c(Cl)c1` [Example 95, 4-(1-benzylpiperidin-4-yloxy)-3-chloro-N-(thiazol-2-yl)benzenesulfonamide 2,2,2-trifluoroacetate] showed an IC50 of 14.7 µM. Turning to `C[C@@]1(Oc2cc(F)c(S(=O)(=O)Nc3cscn3)cc2Cl)CCN(Cc2ccccc2)C1` [Example 311B, (R)-4-((1-benzyl-3-methylpyrrolidin-3-yl)oxy)-5-chloro-2-fluoro-N-(thiazol-4-yl)benzenesulfonamide], the IC50 against NaV1.1 [3] turned out to be 18.1 µM; at NaV1.5 [4] it was 26.1 µM.

At NaV1.5 [1], `C[C@@H]1CN(Cc2ccccc2)CC[C@@H]1Oc1ccc(S(=O)(=O)Nc2nccs2)cc1Cl` (relative stereo) [Example 8A, 4-((cis-1-benzyl-3-methylpiperidin-4-yl)oxy)-3-chloro-N-(thiazol-2-yl)benzenesulfonamide] displayed an IC50 of 4.81 µM. As to `CC1(Oc2cc(F)c(S(=O)(=O)Nc3cscn3)cc2Cl)CCN(Cc2ccccc2)C1` (racemic) [Example 310, rac-4-((1-benzyl-3-methylpyrrolidin-3-yl)oxy)-5-chloro-2-fluoro-N-(thiazol-4-yl)benzenesulfonamide], the IC50 against NaV1.5 [1] amounted to 18.2 µM.
